# Data reported in US10787490B2, “Peptide inhibitors of interleukin-23 receptor and their use to treat inflammatory diseases” (Protagonist Therapeutics, Inc., priority 2015, dated 2020).
# By UniProt entry, the sequences of proteins in these tests, tags left out. Residues count along the entry.
# UniProt Q5VWK5, 24-354 limits assumed, looked up: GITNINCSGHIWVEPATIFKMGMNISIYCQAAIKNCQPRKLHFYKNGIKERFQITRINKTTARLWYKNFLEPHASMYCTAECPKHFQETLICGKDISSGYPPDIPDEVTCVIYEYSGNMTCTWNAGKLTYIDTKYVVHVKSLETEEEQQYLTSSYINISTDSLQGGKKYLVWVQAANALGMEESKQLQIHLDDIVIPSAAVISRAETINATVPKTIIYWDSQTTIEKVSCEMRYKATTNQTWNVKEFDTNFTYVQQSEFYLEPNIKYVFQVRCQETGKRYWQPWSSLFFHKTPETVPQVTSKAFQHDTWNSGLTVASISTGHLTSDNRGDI
# pIC50: −log10 of the molar value. Read-outs that look alike come from different tables or passages of the source.
# Molecular target: human IL-23R (IL23R_huFC) (Homo sapiens, UniProt Q5VWK5)
# [1] = read-out: ELISA IL23R/IL23 in nMoles (IC50), non-cyclic peptides
# [2] = read-out: Human ELISA IL23/IL23R
# [3] = read-out: Human IL23R/IL23 ELISA, peptide dimers, numeric
compound,measurement,setting,value
CSCC[C@H](NC(=O)[C@H](C)NC(C)=O)C(=O)N[C@H](C(=O)N[C@@H](Cc1c[nH]c2ccccc12)C(=O)N[C@@H](CCC(N)=O)C(=O)N[C@@H](CC(=O)O)C(=O)N[C@@H](Cc1ccc(O)cc1)C(=O)N[C@@H](Cc1c[nH]c2ccccc12)C(=O)N[C@@H](CC(C)C)C(=O)N[C@@H](Cc1ccc(O)cc1)C(=O)NCC(=O)N[C@@H](CCCNC(=N)N)C(=O)N[C@@H](CCCCN)C(N)=O)[C@@H](C)O [compound 4],pIC50,[1],5.39
CSCC[C@H](NC(=O)[C@H](C)NC(=O)[C@H](CCCCN)NC(C)=O)C(=O)N[C@H](C(=O)N[C@@H](Cc1c[nH]c2ccccc12)C(=O)N[C@@H](CCC(N)=O)C(=O)N[C@@H](CC(=O)O)C(=O)N[C@@H](Cc1ccc(O)cc1)C(=O)N[C@@H](Cc1c[nH]c2ccccc12)C(=O)N[C@@H](CC(C)C)C(=O)N[C@@H](Cc1ccc(O)cc1)C(=O)NCC(=O)N[C@@H](CCCNC(=N)N)C(N)=O)[C@@H](C)O [compound 6],pIC50,[1],5.25
CSCC[C@H](NC(=O)[C@H](C)NC(C)=O)C(=O)N[C@H](C(=O)N[C@@H](Cc1c[nH]c2ccccc12)C(=O)N[C@@H](CCC(N)=O)C(=O)N[C@@H](CC(=O)O)C(=O)N[C@@H](Cc1ccc(O)cc1)C(=O)N[C@@H](Cc1c[nH]c2ccccc12)C(=O)N[C@@H](CC(C)C)C(=O)N[C@@H](Cc1ccc(O)cc1)C(=O)NCC(=O)N[C@@H](CCCNC(=N)N)C(N)=O)[C@@H](C)O [compound 9],pIC50,[1],5.21
CC(C)C[C@H](NC(=O)[C@H](Cc1c[nH]c2ccccc12)NC(=O)[C@H](Cc1ccc(O)cc1)NC(=O)[C@H](CC(=O)O)NC(=O)[C@H](CCC(N)=O)NC(=O)[C@H](Cc1c[nH]c2ccccc12)NC(=O)[C@@H](NC(=O)[C@H](C)NC(=O)[C@H](C)N)[C@@H](C)O)C(=O)N[C@@H](Cc1ccc(O)cc1)C(=O)NCC(=O)N[C@@H](CCCNC(=N)N)C(=O)O [compound 11],pIC50,[1],5.11
CSCC[C@H](NC(=O)[C@H](C)N)C(=O)N[C@@H](C)C(=O)N[C@@H](Cc1c[nH]c2ccccc12)C(=O)N[C@@H](CCC(N)=O)C(=O)N[C@@H](CC(=O)O)C(=O)N[C@@H](Cc1ccc(O)cc1)C(=O)N[C@@H](Cc1c[nH]c2ccccc12)C(=O)N[C@@H](CC(C)C)C(=O)N[C@@H](Cc1ccc(O)cc1)C(=O)NCC(=O)N[C@@H](CCCNC(=N)N)C(=O)O [compound 12],pIC50,[1],4.62
CSCC[C@H](NC(=O)[C@H](C)N)C(=O)N[C@H](C(=O)N[C@@H](Cc1c[nH]c2ccccc12)C(=O)N[C@@H](C)C(=O)N[C@@H](CC(=O)O)C(=O)N[C@@H](Cc1ccc(O)cc1)C(=O)N[C@@H](Cc1c[nH]c2ccccc12)C(=O)N[C@@H](CC(C)C)C(=O)N[C@@H](Cc1ccc(O)cc1)C(=O)NCC(=O)N[C@@H](CCCNC(=N)N)C(=O)O)[C@@H](C)O [compound 14],pIC50,[1],5.20
CSCC[C@H](NC(=O)[C@H](C)N)C(=O)N[C@H](C(=O)N[C@@H](Cc1c[nH]c2ccccc12)C(=O)N[C@@H](CCC(N)=O)C(=O)N[C@@H](C)C(=O)N[C@@H](Cc1ccc(O)cc1)C(=O)N[C@@H](Cc1c[nH]c2ccccc12)C(=O)N[C@@H](CC(C)C)C(=O)N[C@@H](Cc1ccc(O)cc1)C(=O)NCC(=O)N[C@@H](CCCNC(=N)N)C(=O)O)[C@@H](C)O [compound 15],pIC50,[1],5.02
CC(=O)N[C@H]1CSSC[C@@H](C(=O)N[C@@H](Cc2ccc(O)cc2)C(=O)N[C@@H](Cc2c[nH]c3ccccc23)C(=O)N[C@@H](CCCNC(N)=O)C(=O)N[C@H](C(=O)N[C@@H](Cc2ccccc2)C(=O)NCC(=O)NCCC(=O)N[C@H](CCCCN)C(N)=O)C2CCCCC2)NC(=O)[C@H](C(C)C)NC(=O)[C@H](Cc2c[nH]c3ccccc23)NC(=O)[C@H](CC(=O)O)NC(=O)[C@H](C)NC1=O [compound 39],pIC50,[2],< 4.52
CC(=O)N[C@H]1CSSC[C@@H](C(=O)N[C@@H](Cc2ccc(O)cc2)C(=O)N[C@@](C)(Cc2c[nH]c3ccccc23)C(=O)N[C@@H](CCCNC(N)=O)C(=O)N[C@@H](CCC(C)C)C(=O)N[C@@H](CC(N)=O)C(=O)NCC(=O)NCCOCC(=O)N[C@H](CCCCN)C(N)=O)NC(=O)[C@H](CCC(N)=O)NC(=O)[C@H](Cc2c[nH]c3ccccc23)NC(=O)[C@H]([C@@H](C)O)NC(=O)[C@H](CCC(N)=O)NC1=O [compound 56],pIC50,[2],~5.22
CC(=O)N[C@H]1CSSC[C@@H](C(=O)N[C@@H](Cc2ccc(O)cc2)C(=O)N[C@H](Cc2c[nH]c3ccccc23)C(=O)N[C@@H](CCCN)C(=O)N[C@@H](CN)C(=O)N[C@@H](Cc2ccccc2)C(=O)NCC(=O)NCCOCC(=O)N[C@H](CCCCN)C(N)=O)NC(=O)[C@H](C(C)C)NC(=O)[C@H](Cc2c[nH]c3ccccc23)NC(=O)[C@H](CC(=O)O)NC(=O)[C@H](C)NC1=O [compound 70],pIC50,[2],< 4.52
CC(=O)N[C@H]1CSSC[C@@H](C(=O)N[C@@H](Cc2ccc(O)cc2)C(=O)N[C@@H](Cc2cc(F)cc(F)c2)C(=O)N[C@@H](CCCN)C(=O)N[C@@H](CN)C(=O)N[C@@H](Cc2ccccc2)C(=O)NCC(=O)NCCOCC(=O)N[C@H](CCCCN)C(N)=O)NC(=O)[C@H](C(C)C)NC(=O)[C@H](Cc2c[nH]c3ccccc23)NC(=O)[C@H](CC(=O)O)NC(=O)[C@H](C)NC1=O [compound 73],pIC50,[2],~5.22
CC(=O)N[C@H]1CSSC[C@@H](C(=O)N[C@@H](Cc2ccc(O)cc2)C(=O)N[C@H](CC(=O)N[C@@H](CCCN)C(=O)N[C@@H](CN)C(=O)N[C@@H](Cc2ccccc2)C(=O)NCC(=O)NCCOCC(=O)N[C@H](CCCCN)C(N)=O)Cc2c[nH]c3ccccc23)NC(=O)[C@H](C(C)C)NC(=O)[C@H](Cc2c[nH]c3ccccc23)NC(=O)[C@H](CC(=O)O)NC(=O)[C@H](C)NC1=O [compound 78],pIC50,[2],~5.22
CC(=O)N[C@H]1CSSC[C@@H](C(=O)N[C@@H](Cc2ccc(O)cc2)C(=O)N[C@@H](Cc2c[nH]c3ccccc23)C(=O)N[C@@H](CCCN)C(=O)N[C@@](C)(CC(C)C)C(=O)N[C@@H](Cc2ccccc2)C(=O)NCC(=O)NCCOCC(=O)N[C@H](CCCCN)C(N)=O)NC(=O)[C@H](C(C)C)NC(=O)[C@H](Cc2c[nH]c3ccccc23)NC(=O)[C@H](CC(=O)O)NC(=O)[C@H](C)NC1=O [compound 79],pIC50,[2],~5.22
CCC(CC)(NC(=O)[C@H](CCCN)NC(=O)[C@H](Cc1c[nH]c2ccccc12)NC(=O)[C@H](Cc1ccc(O)cc1)NC(=O)[C@@H]1CSSC[C@H](NC(C)=O)C(=O)N[C@@H](C)C(=O)N[C@@H](CC(=O)O)C(=O)N[C@@H](Cc2c[nH]c3ccccc23)C(=O)N[C@@H](C(C)C)C(=O)N1)C(=O)N[C@@H](Cc1ccccc1)C(=O)NCC(=O)NCCOCC(=O)N[C@H](CCCCN)C(N)=O [compound 83],pIC50,[2],~5.22
CC(=O)N[C@H]1CSSC[C@@H](C(=O)N[C@@H](Cc2ccc(O)cc2)C(=O)N[C@@](C)(Cc2ccc(F)cc2)C(=O)N[C@@H](CCCN)C(=O)N[C@@H](CN)C(=O)N[C@@H](Cc2ccccc2)C(=O)NCC(=O)NCCOCC(=O)N[C@H](CCCCN)C(N)=O)NC(=O)[C@H](C(C)C)NC(=O)[C@H](Cc2c[nH]c3ccccc23)NC(=O)[C@H](CC(=O)O)NC(=O)[C@H](C)NC1=O [compound 84],pIC50,[2],< 4.52
CC(C)C[C@H](NC(=O)[C@H](C)N)C(=O)N[C@H](C(=O)N[C@@H](Cc1c[nH]c2ccccc12)C(=O)N[C@@H](CCC(=O)O)C(=O)N[C@@H](Cc1ccccc1)C(=O)N[C@@H](Cc1ccc(O)cc1)C(=O)N[C@@H](Cc1c[nH]c2ccccc12)C(=O)N[C@@H](CC(C)C)C(=O)N[C@@H](CSSC[C@H](NC(=O)[C@H](CC(C)C)NC(=O)[C@H](Cc1c[nH]c2ccccc12)NC(=O)[C@H](Cc1ccc(O)cc1)NC(=O)[C@H](Cc1ccccc1)NC(=O)[C@H](CCC(=O)O)NC(=O)[C@H](Cc1c[nH]c2ccccc12)NC(=O)[C@@H](NC(=O)[C@H](CC(C)C)NC(=O)[C@H](C)N)[C@@H](C)O)C(=O)N[C@@H](CCCNC(=N)N)C(=O)N[C@@H](CCC(=O)O)C(N)=O)C(=O)N[C@@H](CCCNC(=N)N)C(=O)N[C@@H](CCC(=O)O)C(N)=O)[C@@H](C)O [compound 278],pIC50,[3],< 5.00
CC(=O)N[C@H](CCCCNC(=O)COCC(=O)NCCCC[C@@H](NC(C)=O)C(=O)N[C@@H](CO)C(=O)N[C@H]1CSSC[C@@H](C(=O)N[C@@H](Cc2ccc(O)cc2)C(=O)N[C@@H](Cc2c[nH]c3ccccc23)C(=O)N[C@@H](Cc2c[nH]cn2)C(=O)N[C@H](C(=O)N[C@@H](Cc2ccccc2)C(=O)NCC(=O)O)[C@@H](C)O)NC(=O)[C@H](C(C)C)NC(=O)[C@H](Cc2c[nH]c3ccccc23)NC(=O)[C@H](CC(=O)O)NC(=O)[C@H](C)NC1=O)C(=O)N[C@@H](CO)C(=O)N[C@H]1CSSC[C@@H](C(=O)N[C@@H](Cc2ccc(O)cc2)C(=O)N[C@@H](Cc2c[nH]c3ccccc23)C(=O)N[C@@H](Cc2c[nH]cn2)C(=O)N[C@H](C(=O)N[C@@H](Cc2ccccc2)C(=O)NCC(=O)O)[C@@H](C)O)NC(=O)[C@H](C(C)C)NC(=O)[C@H](Cc2c[nH]c3ccccc23)NC(=O)[C@H](CC(=O)O)NC(=O)[C@H](C)NC1=O [compound 292],pIC50,[3],< 5.00
CC(=O)N[C@H](CCCCNC(=O)COCC(=O)NCCCC[C@@H](NC(C)=O)C(=O)N[C@H]1CSSC[C@@H](C(=O)N[C@@H](Cc2ccc(O)cc2)C(=O)N[C@@H](Cc2c[nH]c3ccccc23)C(=O)N[C@@H](Cc2c[nH]cn2)C(=O)N[C@H](C(=O)N[C@@H](Cc2ccccc2)C(=O)NCC(=O)O)[C@@H](C)O)NC(=O)[C@H](C(C)C)NC(=O)[C@H](Cc2c[nH]c3ccccc23)NC(=O)[C@H](CC(=O)O)NC(=O)[C@H](C)NC1=O)C(=O)N[C@H]1CSSC[C@@H](C(=O)N[C@@H](Cc2ccc(O)cc2)C(=O)N[C@@H](Cc2c[nH]c3ccccc23)C(=O)N[C@@H](Cc2c[nH]cn2)C(=O)N[C@H](C(=O)N[C@@H](Cc2ccccc2)C(=O)NCC(=O)O)[C@@H](C)O)NC(=O)[C@H](C(C)C)NC(=O)[C@H](Cc2c[nH]c3ccccc23)NC(=O)[C@H](CC(=O)O)NC(=O)[C@H](C)NC1=O [compound 295],pIC50,[3],< 5.00
